Experimental data from patent EP3442966B1, “NOVEL N-[(PYRIMIDINYLAMINO)PROPANYL]- AND N-[(PYRIDINYLAMINO)PROPANYL]ARYLCARBOXAMIDES” (Boehringer Ingelheim International GmbH, priority 2016, dated 2017).

Amino acid sequences for entries named in this document (tags omitted).
UniProt O43613, whole entry, species assumed: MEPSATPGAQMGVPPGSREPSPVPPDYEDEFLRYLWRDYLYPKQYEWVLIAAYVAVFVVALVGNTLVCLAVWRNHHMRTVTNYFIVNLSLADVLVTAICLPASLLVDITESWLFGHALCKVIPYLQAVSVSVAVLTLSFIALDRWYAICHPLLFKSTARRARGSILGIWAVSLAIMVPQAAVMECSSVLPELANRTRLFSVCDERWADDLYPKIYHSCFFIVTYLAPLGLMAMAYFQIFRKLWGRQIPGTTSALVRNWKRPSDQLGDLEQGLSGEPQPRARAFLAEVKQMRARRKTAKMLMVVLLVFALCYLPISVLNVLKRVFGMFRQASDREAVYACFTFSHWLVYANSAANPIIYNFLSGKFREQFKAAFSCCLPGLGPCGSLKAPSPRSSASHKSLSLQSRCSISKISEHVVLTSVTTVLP

Molecular target: OX1R (Homo sapiens, UniProt O43613)
Assay: OX1R assay of WO2013/187466 (fluorescence measurement of intracellular Ca2+ changes)
Assay type: cell-based
Settings: ratio of the IC50 values described in WO2013/187466

OX2R IC50 / OX1R IC50: 411
Structure (SMILES): CCN(C(=O)c1cc(F)ccc1-c1ncccn1)[C@@H](C)Cn1nnc(-c2ccc(F)cc2)n1 [Example 70 in WO2013/187466]
